Results: PubChem BioAssay (NCATS)
The entries are a selection whose mix differs from that of the whole data set. Inconclusive results are not listed. For part of these data: Measured potencies and affinities stand elsewhere. The source made the active and inactive calls. Unless noted, calls come from the whole dose curve; as a rule, active = well fitted curve in the direction sought with a large enough effect; inconclusive = small, poorly fitted or top-dose-only effect, or another doubt; inactive = no such curve, though single readings can be large; an effect the other way counts as inactive or inconclusive.

Chains of the proteins cited; added tags and fusions are not shown. Lines headed by an entry give the natural chain unless they say otherwise; changes in a name come on top.
UniProt O94782: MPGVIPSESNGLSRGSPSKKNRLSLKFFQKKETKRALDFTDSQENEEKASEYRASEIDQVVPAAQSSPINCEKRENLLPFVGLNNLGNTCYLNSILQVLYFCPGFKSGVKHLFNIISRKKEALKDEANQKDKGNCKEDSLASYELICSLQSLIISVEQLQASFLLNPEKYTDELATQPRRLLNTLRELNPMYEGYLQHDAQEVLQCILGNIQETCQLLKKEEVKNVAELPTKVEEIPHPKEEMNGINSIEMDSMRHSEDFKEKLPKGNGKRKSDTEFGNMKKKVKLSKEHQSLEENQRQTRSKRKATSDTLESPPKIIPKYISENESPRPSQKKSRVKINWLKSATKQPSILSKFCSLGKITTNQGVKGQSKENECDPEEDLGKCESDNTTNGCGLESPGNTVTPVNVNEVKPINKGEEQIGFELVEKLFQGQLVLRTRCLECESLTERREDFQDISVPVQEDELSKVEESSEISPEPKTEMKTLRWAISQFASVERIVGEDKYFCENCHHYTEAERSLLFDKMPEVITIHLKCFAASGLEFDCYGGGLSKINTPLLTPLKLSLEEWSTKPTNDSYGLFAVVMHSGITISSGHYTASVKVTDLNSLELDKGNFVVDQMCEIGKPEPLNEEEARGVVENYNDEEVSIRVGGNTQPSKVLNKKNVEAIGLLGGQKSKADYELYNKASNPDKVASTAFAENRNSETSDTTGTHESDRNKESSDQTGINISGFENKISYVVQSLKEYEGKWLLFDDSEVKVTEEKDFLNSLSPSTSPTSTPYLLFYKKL
UniProt Q12809: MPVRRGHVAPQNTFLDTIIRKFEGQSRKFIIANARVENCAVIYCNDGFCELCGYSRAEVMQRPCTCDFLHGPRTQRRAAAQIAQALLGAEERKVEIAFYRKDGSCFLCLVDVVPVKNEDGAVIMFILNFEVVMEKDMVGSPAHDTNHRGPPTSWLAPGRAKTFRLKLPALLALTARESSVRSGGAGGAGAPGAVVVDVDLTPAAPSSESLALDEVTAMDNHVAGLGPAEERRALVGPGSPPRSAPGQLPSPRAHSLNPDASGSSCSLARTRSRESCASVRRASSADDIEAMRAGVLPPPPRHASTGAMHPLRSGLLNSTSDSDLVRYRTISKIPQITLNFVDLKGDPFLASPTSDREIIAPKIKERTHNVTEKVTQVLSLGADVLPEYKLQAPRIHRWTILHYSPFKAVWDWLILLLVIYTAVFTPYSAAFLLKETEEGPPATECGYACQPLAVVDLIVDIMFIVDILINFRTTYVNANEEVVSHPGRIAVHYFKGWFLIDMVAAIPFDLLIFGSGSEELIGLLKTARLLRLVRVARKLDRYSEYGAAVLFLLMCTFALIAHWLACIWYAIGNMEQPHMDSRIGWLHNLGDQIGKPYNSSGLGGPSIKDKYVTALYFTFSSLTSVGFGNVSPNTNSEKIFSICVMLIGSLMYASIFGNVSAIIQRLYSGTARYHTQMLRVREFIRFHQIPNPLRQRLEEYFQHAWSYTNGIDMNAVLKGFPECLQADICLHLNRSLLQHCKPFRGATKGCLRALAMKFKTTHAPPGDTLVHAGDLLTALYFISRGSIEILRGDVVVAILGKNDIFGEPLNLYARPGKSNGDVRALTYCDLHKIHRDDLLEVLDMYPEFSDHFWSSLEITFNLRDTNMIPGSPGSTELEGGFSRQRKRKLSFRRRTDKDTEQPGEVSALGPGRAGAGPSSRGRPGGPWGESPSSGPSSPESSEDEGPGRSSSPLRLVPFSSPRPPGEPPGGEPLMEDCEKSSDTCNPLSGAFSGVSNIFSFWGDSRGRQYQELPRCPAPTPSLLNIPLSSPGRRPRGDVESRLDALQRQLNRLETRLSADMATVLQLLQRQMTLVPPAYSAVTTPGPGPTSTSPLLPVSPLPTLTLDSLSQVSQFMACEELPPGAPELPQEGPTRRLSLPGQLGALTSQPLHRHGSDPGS
UniProt P08659, whole entry, looked up: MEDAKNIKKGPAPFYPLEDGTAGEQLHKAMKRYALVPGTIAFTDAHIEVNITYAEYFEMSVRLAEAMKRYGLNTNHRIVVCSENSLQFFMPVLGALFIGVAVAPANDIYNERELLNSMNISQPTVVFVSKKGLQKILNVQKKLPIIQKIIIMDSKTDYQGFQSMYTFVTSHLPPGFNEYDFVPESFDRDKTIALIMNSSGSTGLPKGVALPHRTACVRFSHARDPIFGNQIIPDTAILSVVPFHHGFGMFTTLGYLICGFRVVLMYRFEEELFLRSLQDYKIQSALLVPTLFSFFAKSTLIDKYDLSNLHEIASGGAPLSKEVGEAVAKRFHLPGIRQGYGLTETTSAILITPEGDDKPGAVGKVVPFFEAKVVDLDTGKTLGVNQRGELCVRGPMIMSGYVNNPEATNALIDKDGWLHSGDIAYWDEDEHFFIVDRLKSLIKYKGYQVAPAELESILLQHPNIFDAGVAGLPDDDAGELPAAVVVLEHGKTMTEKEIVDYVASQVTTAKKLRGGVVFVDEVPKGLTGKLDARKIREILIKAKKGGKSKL
UniProt O15297: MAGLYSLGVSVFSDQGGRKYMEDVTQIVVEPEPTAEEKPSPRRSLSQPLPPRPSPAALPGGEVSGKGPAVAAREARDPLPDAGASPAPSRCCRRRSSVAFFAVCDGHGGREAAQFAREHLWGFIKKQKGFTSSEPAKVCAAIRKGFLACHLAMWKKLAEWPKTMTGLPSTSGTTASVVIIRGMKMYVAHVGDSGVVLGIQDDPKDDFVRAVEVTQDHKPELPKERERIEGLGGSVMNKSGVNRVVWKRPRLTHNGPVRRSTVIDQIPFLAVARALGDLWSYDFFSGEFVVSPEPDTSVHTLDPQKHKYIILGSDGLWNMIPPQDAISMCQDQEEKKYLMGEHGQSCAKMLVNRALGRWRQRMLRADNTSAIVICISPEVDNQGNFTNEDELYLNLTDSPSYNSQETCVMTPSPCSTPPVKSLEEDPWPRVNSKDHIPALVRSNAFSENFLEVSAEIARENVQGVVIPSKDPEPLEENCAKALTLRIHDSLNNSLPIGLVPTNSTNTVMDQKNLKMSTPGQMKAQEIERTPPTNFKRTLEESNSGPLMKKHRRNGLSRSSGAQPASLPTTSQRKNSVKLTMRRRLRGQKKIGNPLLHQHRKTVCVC

What was measured:
[1] = target: Ubiquitin carboxyl-terminal hydrolase 1 (Homo sapiens) (UniProt O94782); assay: Inhibitors of USP1/UAF1: Pilot qHTS (AID 504865); details: purified USP1/UAF1, Ub-rhodamine cleavage fluorescence; at 114 µM (top of the series);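 note: rhodamine fluorescence freed from ubiquitin-rhodamine substrate followed over time; top concentration of the series differs between compounds; % is set by controls: 0 for no effect and ±100 for the full control effect; nearly all actives have a fitted effect of over 35% in size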
[2] = target: Voltage-gated inwardly rectifying potassium channel KCNH2 (Homo sapiens) (UniProt Q12809); assay: qHTS Assay for Small Molecule Inhibitors of the Human hERG Channel Activity (AID 588834); details: U2OS BacMam hERG, FluxOR thallium flux fluorescence; at 46.1 µM (top of the series) unless noted;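 note: U2OS cells transduced with hERG by BacMam; top concentration of the series differs between compounds; % is set by controls: 0 for no effect and ±100 for the full control effect; lower thallium flux fluorescence means stronger hERG block; nearly all actives have a fitted effect of over 50% in size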
[3] = target: Luciferin 4-monooxygenase (Photinus pyralis) (UniProt P08659); assay: Biochemical firefly luciferase enzyme assay for NPC (AID 624030);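 note: purified P. pyralis luciferase at 10 nM with luciferin and ATP substrate; 0% = DMSO and -100% = full luciferase inhibition by PTC124 control; nearly all actives have a fitted effect of over 70% in size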; details: purified P. pyralis luciferase, luminescence, 5 min; at 58.6 µM (top of the series) unless noted
How it was run: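 Direct inhibition of firefly luciferase enzyme (10 nM final, 50 mM Tris Acetate) assessed by luminescence within 5 minutes. Percent activity scaled between DMSO and PTC124 positive control, with concentration-effect curves classified by fit quality and response.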

[4] = S16 Schwann cell viability assay (CellTiter-Glo assay) (AID 624031); details: S16 rat Schwann cells viability, 24 h; at 57.5 µM (top of the series);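 note: native untransfected S16 rat Schwann cells; cellular ATP luminescence as a viability measure; plate controls were DMSO-treated cells for no effect and cell-free wells for full effect; nearly all actives have a fitted effect of over 70% in size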
How it was run: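 Following overnight culture in 10% FBS DMEM, parental S16 rat Schwann cells are dosed for 24 h at 37 °C. Viability is read as CellTiter-Glo luminescence and expressed as % activity relative to DMSO (0%) and no-cell wells.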

[5] = S16 Schwann cell PMP22 intronic element firefly luciferase assay (AID 624032); details: S16 rat Schwann cells, PMP22 element FLuc, 24 h; at 57.5 µM (top of the series);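 note: plate controls were DMSO for no effect and PTC124 positive control mean for full effect; nearly all actives have a fitted effect of over 30% in size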
[6] = S16 Schwann cell PMP22 intronic element beta-lactamase assay (AID 624044; calls by dose curve;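 note: 0% = DMSO and -100% = potassium clavulanate positive control; nearly all actives have a fitted effect of over 15% in size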); details: S16 rat Schwann cells, PMP22 element beta-lactamase FRET, 24 h; at 38.3 µM (top of the series)
[7] = qHTS assay to identify small molecule inhibitors of chordoma cells - UCH-1 (AID 1259355); details: UCH-1 chordoma viability, CellTiter-Glo, 48 h, combination, with auranofin plus four topoisomerase inhibitors; at 46.1 µM (top of the series); note: % is set by controls: 0 for no effect and ±100 for the full control effect; nearly all actives have a fitted effect of over 55% in size
How it was run: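 800 cells/well, overnight attach; compounds pinned at 15 concs, then auranofin/camptothecin/doxorubicin/rubitecan/topotecan combo added; 48hr 37 C, 5% CO2; CellTiter-Glo, 30min RT, luminescence.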

[8] = qHTS assay to identify small molecule inhibitors of chordoma cells - UCH-2 (AID 1259356); details: UCH-2 chordoma viability, CellTiter-Glo ATP luminescence, 48 h; at 46.1 µM (top of the series); note: % is set by controls: 0 for no effect and ±100 for the full control effect
Text: NIH Chemical Genomics Center [NCGC]
Chordoma is a rare and slow growing tumor that can occur anywhere along the spine, from the base of the skull to the tailbone. Current treatment options for chordoma is surgery and radiation therapy for those who are not candidates for surgery. But chordomas tend to return in the same location or surrounding areas of the original tumor after surgery and/or radiation. Chemotherapy can slow down the progression of the tumor. As chordoma is slow growing, the general cytotoxic agents that kill fast growing cells are ineffective, and some patients have been reported to respond to molecularly targeted drugs.
NCATS Pharmaceutical Collection (NPC) containing approximately 3000 clinically approved and investigational drugs were used to screen at 15 concentrations in a chordoma cell lines, UCH-2, to identify small molecule compounds that can inhibit chordoma cell growth.
NCGC Assay Protocol Summary:
Human chordoma cell line UCH-2 was dispensed at 800 per well in 4uL of culture medium into white solid bottom 1536-well plates (Corning Life Sciences, Corning, NY) using a Multidrop Combi (Thermo Scientific, Waltham, MA) dispenser. The assay plates were incubated at 37 C and 5% CO2 for an overnight, and then 23nL of compounds dissolved in DMSO and positive control were transferred using a Pintool station (Wako, San Diego, CA). Compound treatment was followed by the addition of 1uL of the combination compounds (1uM Auranofin, 500nM each of Camptothecin, Doxorubicin, Rubitecan, and Topotecan) and assay medium to each well of the assay plates using Flying Reagent Dispenser (FRD, Aurora Discovery, San Diego, CA). The assay plates were incubated at 37 C and 5% CO2 for 48hr. Then 5uL of CellTiter-Glo reagent (Promega Corporation, Madison, WI) was added to each well of the assay plates using FRD. After 30min incubation at room temperature, the luminescence signal was quantified using a ViewLux plate reader (PerkinElmer, Shelton, CT).

[9] = P-glycoprotein substrates identified in KB-8-5-11 adenocarcinoma cell line, qHTS therapeutic library screen (AID 1346987); details: KB-8-5-11 (P-gp overexpressing) viability, CellTiter-Glo, 72 h; at 44.5 µM (top of the series) unless noted; note: % is set by controls: 0 for no effect and ±100 for the full control effect; nearly all actives have a fitted effect of over 65% in size
[10] = qHTS of pediatric cancer cell lines to identify multiple opportunities for drug repurposing: Primary screen for TC32 cells (AID 1347089); details: TC32 Ewing sarcoma viability, CellTiter-Glo luminescence, 48 h; at 45.8 µM (top of the series) unless noted; note: % is set by controls: 0 for no effect and ±100 for the full control effect; nearly all actives have a fitted effect of over 60% in size
[11] = qHTS of pediatric cancer cell lines to identify multiple opportunities for drug repurposing: Primary screen for DAOY cells (AID 1347090);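 note: plate controls were DMSO for no effect and bortezomib for full effect; nearly all actives have a fitted effect of over 55% in size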
[12] = qHTS of pediatric cancer cell lines to identify multiple opportunities for drug repurposing: Primary screen for SJ-GBM2 cells (AID 1347091); details: SJ-GBM2 viability, CellTiter-Glo luminescence, 48 h; at 46 µM (top of the series) unless noted;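 note: plate controls were DMSO neutral control for no effect and bortezomib for full effect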
[13] = qHTS of pediatric cancer cell lines to identify multiple opportunities for drug repurposing: Primary screen for A673 cells (AID 1347092); details: A673 Ewing sarcoma viability, CellTiter-Glo ATP luminescence, 48 h; at 46 µM (top of the series) unless noted; note: % is set by controls: 0 for no effect and ±100 for the full control effect; nearly all actives have a fitted effect of over 45% in size
[14] = qHTS of pediatric cancer cell lines to identify multiple opportunities for drug repurposing: Primary screen for SK-N-MC cells (AID 1347093); details: SK-N-MC viability, CellTiter-Glo luminescence, 48 h; at 46 µM (top of the series) unless noted;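 note: plate controls were DMSO neutral control for no effect and bortezomib for full effect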
[15] = qHTS of pediatric cancer cell lines to identify multiple opportunities for drug repurposing: Primary screen for BT-37 cells (AID 1347094); details: BT-37 viability, CellTiter-Glo luminescence, 48 h; at 57.3 µM (top of the series) unless noted;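 note: plate controls were DMSO for no effect and bortezomib for full effect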
[16] = qHTS of pediatric cancer cell lines to identify multiple opportunities for drug repurposing: Primary screen for NB-EBc1 cells (AID 1347095); details: NB-EBc1 neuroblastoma viability, CellTiter-Glo luminescence, 48 h; at 46 µM (top of the series) unless noted;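 note: plate controls were DMSO neutral control for no effect and bortezomib for full effect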
[17] = qHTS of pediatric cancer cell lines to identify multiple opportunities for drug repurposing: Primary screen for U-2 OS cells (AID 1347096); details: U-2 OS viability, CellTiter-Glo luminescence, 48 h; at 46 µM (top of the series) unless noted;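 note: plate controls were DMSO wells for no effect and bortezomib positive control wells for full effect; nearly all actives have a fitted effect of over 50% in size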
[18] = qHTS of pediatric cancer cell lines to identify multiple opportunities for drug repurposing: Primary screen for Saos-2 cells (AID 1347097); details: Saos-2 viability, CellTiter-Glo ATP luminescence, 48 h; at 46 µM (top of the series) unless noted; note: % is set by controls: 0 for no effect and ±100 for the full control effect; nearly all actives have a fitted effect of over 40% in size
[19] = qHTS of pediatric cancer cell lines to identify multiple opportunities for drug repurposing: Primary screen for SK-N-SH cells (AID 1347098); details: SK-N-SH viability, CellTiter-Glo luminescence, 48 h; at 57 µM (top of the series) unless noted;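 note: DMSO served as neutral control and bortezomib at 2.3 µM as positive control; % is set by controls: 0 for no effect and ±100 for the full control effect; nearly all actives have a fitted effect of over 65% in size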
[20] = qHTS of pediatric cancer cell lines to identify multiple opportunities for drug repurposing: Primary screen for NB1643 cells (AID 1347099); details: NB1643 neuroblastoma viability, CellTiter-Glo luminescence, 48 h; at 46 µM (top of the series) unless noted;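 note: plate controls were DMSO neutral control for no effect and bortezomib positive control for full effect; nearly all actives have a fitted effect of over 50% in size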
[21] = qHTS of pediatric cancer cell lines to identify multiple opportunities for drug repurposing: Primary screen for BT-12 cells (AID 1347101);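 note: plate controls were DMSO for no effect and bortezomib positive control for full effect; nearly all actives have a fitted effect of over 25% in size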
[22] = qHTS of pediatric cancer cell lines to identify multiple opportunities for drug repurposing: Primary screen for Rh18 cells (AID 1347102); details: Rh18 rhabdomyosarcoma viability, CellTiter-Glo luminescence, 48 h; at 46 µM (top of the series) unless noted; note: % is set by controls: 0 for no effect and ±100 for the full control effect; nearly all actives have a fitted effect of over 65% in size
[23] = qHTS of pediatric cancer cell lines to identify multiple opportunities for drug repurposing: Primary screen for OHS-50 cells (AID 1347103);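 note: plate controls were DMSO neutral control for no effect and bortezomib positive control for full effect; nearly all actives have a fitted effect of over 40% in size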
[24] = qHTS of pediatric cancer cell lines to identify multiple opportunities for drug repurposing: Primary screen for RD cells (AID 1347104); details: RD rhabdomyosarcoma viability, CellTiter-Glo luminescence, 48 h; at 46 µM (top of the series) unless noted;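 note: plate controls were DMSO for no effect and bortezomib for full effect; nearly all actives have a fitted effect of over 55% in size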
[25] = qHTS of pediatric cancer cell lines to identify multiple opportunities for drug repurposing: Primary screen for MG 63 (6-TG R) cells (AID 1347105); details: MG 63 (6-TG R) viability, CellTiter-Glo, 48 h; at 46 µM (top of the series) unless noted; note: % is set by controls: 0 for no effect and ±100 for the full control effect; nearly all actives have a fitted effect of over 50% in size
[26] = qHTS of pediatric cancer cell lines to identify multiple opportunities for drug repurposing: Primary screen for control Hh wild type fibroblast cells (AID 1347106); details: Hh wild-type fibroblast viability, CellTiter-Glo luminescence, 48 h; at 46 µM (top of the series) unless noted;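 note: % is set by controls: 0 for no effect and ±100 for the full control effect; a drop in luminescence marks cytotoxicity and a rise apparent proliferation; nearly all actives have a fitted effect of over 55% in size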
[27] = qHTS of pediatric cancer cell lines to identify multiple opportunities for drug repurposing: Primary screen for Rh30 cells (AID 1347107); details: Rh30 rhabdomyosarcoma viability, CellTiter-Glo luminescence, 48 h; at 46 µM (top of the series) unless noted
[28] = qHTS of pediatric cancer cell lines to identify multiple opportunities for drug repurposing: Primary screen for Rh41 cells (AID 1347108); details: Rh41 rhabdomyosarcoma viability, CellTiter-Glo luminescence, 48 h; at 46 µM (top of the series) unless noted
[29] = qHTS to identify inhibitors of the type 1 interferon - major histocompatibility complex class I in skeletal muscle: primary screen against the NCATS Pharmaceutical Collection (AID 1347407); details: human skeletal muscle cells, IFN-b-induced MHC-I HiBiT luminescence, 24 h; at 45.9 µM (top of the series) unless noted
How it was run: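 Compounds […] were added to CRISPR-engineered HLA-B-HiBiT C25cl48 human myoblasts with 4.0 ng/ml IFN-beta. After 24 hrs at 37 C, cells were lysed and HiBiT luminescence measured.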

[30] = target: Protein phosphatase 1D (Homo sapiens) (UniProt O15297); assay: RapidFire Mass Spectrometry qHTS Assay for Modulators of WT P53-Induced Phosphatase 1 (WIP1) (AID 1347424); details: WIP1 dephosphorylation of phosphopeptide, RapidFire MS; at 63 µM (top of the series) unless noted
How it was run: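 RapidFire mass spectrometry measured dephosphorylated peptide after 5 min room-temperature reaction of 2 uM VEPPL-pS-QETFS with 10 nM WIP1 (50 mM Tris-HCl pH 7.5, 30 mM MgCl2, 0.1 mM EGTA, BSA), following 1 hr compound preincubation; 1 uM isotope-labelled product standard.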

CN(C(=O)Cc1ccccc1)[C@H]1CC[C@@]2(CCCO2)C[C@@H]1N1CCCC1
inactive: activity change, negative = inhibition [1] -7.38% | activity change, negative = inhibition [2] -8.87% | activity change, negative = inhibition [3] -0.447% | activity change, negative = cytotoxicity [4] -9.73% | activity change, negative = inhibition [5] -29.9% | ratio activity, negative = inhibition [6] 2.13% | activity, negative = inhibition [7] -0.118% | activity change, negative = inhibition [8] 12.1% | activity change, negative = cytotoxicity [9] -9.94% | activity change, negative = cytotoxic [10] 1.15% | Potency [11] | activity change, negative = cytotoxic [12] 16.4% | activity change, negative = cytotoxic [13] -23.2% | activity change, negative = cytotoxic [14] -3.71% | activity change, negative = cytotoxic [15] -2.62% | activity change, negative = cytotoxic [16] -0.669% | activity change, negative = cytotoxic [17] 2.44% | activity change, negative = cytotoxic [18] 4.9% | activity change, negative = cytotoxic [19] -21.3% | activity change, negative = cytotoxic [20] 16.1% | Potency [21] | activity change, negative = cytotoxic [22] -10% | Potency [23] | activity change, negative = cytotoxic [24] -1.88% | activity change, negative = cytotoxic [25] -7.81% | activity change, negative = cytotoxic [26] 12.8% | activity change, negative = cytotoxic [27] 10.7% | activity change, negative = cytotoxic [28] 13% | activity change, negative = inhibition [29] -10.3% | activity change, negative = inhibition [30] 3.94%
